Assay: Solubility at equilibrium, shake flask method with spectrophotometric determination
Format: physicochemical
Settings: for Solubility at Equilibrium: 21 °C
Experimental: The samples were sieved through a 230-mesh grid, 63 μm (Endecotts, London, UK).
The spectra of AAD and PMZ were recorded previously to prevent the possibility of interference in the absorbance of the two molecules. […] An excess sample is placed in the flasks containing the three different fluids and left under stirring. At time intervals, a portion of the solution was taken and filtered on a 0.22 μm filter (Millipore Merck, Darmstadt, Germany). The drug concentration was determined using UV detection (Lambda 25, Perkin-Elmer, Monza, Italy). The test was repeated until equilibrium was reached. The spectra of AAD and PMZ were recorded previously to prevent the possibility of interference in the absorbance of the two molecules.

Substance: [PMZH]2[adipate] [PMZ:AAD 0.66:0.33ev]
- Solubility at Equilibrium (H2O (deionized water)): 8.9 ± 0.4 µg/mL
- Increase of solubility compared to pure PMZ (deionized water): about six times
- Increase of solubility compared to pure PMZ (fluid at pH = 2): doubles
- Solubility at Equilibrium (pH 2.0 (0.01N hydrochloric acid)): 335.1 ± 3.6 µg/mL
- Solubility at Equilibrium (pH 4.5 (phosphate buffer)): 27.3 ± 0.5 µg/mL
- Increase of solubility compared to pure PMZ (pH = 4.5): more than four times

— article PMC11643450, “Pimozide and Adipic Acid: A New Multicomponent Crystalline Entity for Improved Pharmaceutical Behavior” (Molecules, 2024)
